{
  "source": "patent US20190274981A1",
  "about": "“OLEANOLIC ACID ENHANCES MESENCHYMAL STROMAL CELL OSTEOGENIC POTENTIAL BY INHIBITION OF NOTCH SIGNALING” (Board of Supervisors of Louisiana State University and …, priority 2018, published 2019)",
  "molecules": {"B1": {"name": "BMP2: Recombinant human BMP2 purchased from R&D; growth factor bone morphogenetic protein 2 (protein, UniProt P12643 283-396, looked up)", "Bone morphogenetic protein 2": "QAKHKQRKRLKSSCKRHPLYVDFSDVGWNDWIVAPPGYHAFYCHGECPFPLADHLNSTNHAIVQTLVNSVNSKIPKACCVPTELSAISMLYLDENEKVVLKNYQDMVVEGCGCR"}},
  "key": {"[1]": {"test_system": "phospho-smad1/5/8", "experiment": "RT-PCR and western blot of phospho-smad1/5/8", "assay_type": "cell-based, human", "details": "MSCs, day 7, OA 20 μM, BMP2 200 ng/ml", "experimental": "Real time RT-PCR: cDNA was synthesized from 1 μg total RNA using the SuperScript III reverse transcriptase kit (Invitrogen) in a final volume of 20 μl. Primers were designed with the IDT SCI primer design tool (Integrated DNA Technologies, San Diego, Calif.). RT-PCR experiments were performed with a Bio-Rad C1000 thermal cycler (Bio-Rad, Hercules, Calif.), and real-time PCR experiments were performed with an ABI prism 7500 (Applied Biosystems, Grand Island, N.Y.) in triplicate. Sequence for each primer pair were: Hes1, forward primer 5′-[…]-3′, reverse primer 5′-[…]-3′; ALP, forward primer 5′-[…]-3′, reverse primer 5′-AGTCAGGTTGTT CCGATTCA-3′; Runx2, forward primer 5′-[…]-3′, reverse primer 5′-[…]-3′; Osteocalcin (OC), forward primer 5′-[…]-3′, reverse primer 5′-[…]-3′; Osteopontin (OPN), forward primer 5′-[…]-3′, reverse primer 5′-[…]-3′; Type I collagen (Col1a1), forward primer 5′-[…]-3′, reverse primer 5′-[…]-3′; β-actin, forward primer 5′-[…]-3′; reverse primer 5′-TCCACCACCC TGTTGCTGTA-3′. Samples were analyzed in triplicate, and the raw data consisted of PCR cycle numbers required to reach a fluorescence threshold level. The relative expression level of target genes was normalized to (β-actin gene. […]"}, "[2]": {"test_system": "MSC/HA pellet", "experiment": "In vivo ectopic bone-formation assay", "details": "nude mice, six weeks, BMP2 with or without OA", "experimental": "In vivo ectopic bone-formation assay: All animal studies were reviewed and approved by the Animal Ethics Committee of Louisiana State University Health Sciences Center. 1.0×10^6 total MSCs were re-suspended in 80 μl of MSC growth media containing 20 μM OA and gently mixed with 50 mg of hydroxyapatite (HA) powder (Himed). The composites were then centrifuged for two minutes at 200 rpm to form a MSC/HA pellet. For ectopic bone formation surgery, ten 8-week-old NOD.CB17^−Prkdescid/J mice (Charles River) (up to 2 implants for each animal) were anesthetized and the dorsal skin was cleaned with 70% ethanol. Two incisions of ˜1 cm in length were performed on the opposite flanks of the back, and then a pocket was formed by blunt dissection. Finally the MSC/HA pellets were implanted. Six weeks post-surgery, transplanted BMSC/HA pellets were harvested for gross observation and Masson's trichrome staining. Immunohistochemistry (IHC) staining was performed using anti-osteopontin antibody (7C5H12, Abcam, USA) according to our published protocols. All animal work was performed in accordance with institution approved guidelines.\nOA enhances BMP2-mediated ectopic bone formation: To further confirm the capacity of OA induced osteogenesis in vivo, ectopic ossicle assays using 8-week old nude mice was performed. […]"}, "[3]": {"test_system": "MSCs", "experiment": "MSC osteogenic differentiation assay, ALP staining", "assay_type": "cell-based, human", "details": "OA 20 μM and/or BMP2 200 ng/ml, seven days, osteogenic medium", "experimental": "Cell culture and treatment: The human MSCs were purchased from Lonza. Oleanolic acid was obtained from Sigma-Aldrich (Aldrich-5504). A 100 mM solution of OA was prepared in dimethyl sulfoxide (DMSO), and all test concentrations were prepared by diluting the stock solution in cell culture medium. Recombinant human BMP2 was purchased from R&D. The cells were cultured in DMEM supplemented with 10% fetal bovine serum (Gibco BRL, Rockville, Md.). After expansion, cells were exposed to media containing OA and/or BMP2 for certain days. […] At the end, cells were harvested at different time points for analyses as described below.\nMSC osteogenic differentiation assay: Osteogenic differentiation assays of MSCs were performed using the Osteogenic differentiation bulletKit® (Lonza). MSCs were cultured at 200,000 cells/well in 6-well plates to confluence. Stem cell growth media was then replaced with osteogenic media supplied with or without OA and BMP2. After seven days of culture, alkaline phosphatase (ALP) staining, RNA, and protein isolation were performed as described in our published protocols."}},
  "data": [
    {"molecule": "B1", "values": [
      {"measurement": "gene expression of p-smad1/5/8 (RT-PCR)", "setting": "[1]", "result": "significantly increased"},
      {"measurement": "bone matrix in MSC/HA pellet (Masson's trichrome)", "setting": "[2]", "result": "increase of bone matrix"},
      {"measurement": "ALP activity (ALP staining)", "setting": "[3]", "result": "significant increase"}
    ]}
  ]
}
